Hits are enriched below; roughly 13% of the tested compounds scored in any of these assays.
JMJD2E inh: blocks human JMJD2E demethylase activity. B2RXH2. JMJD2E catalytic domain, FDH-coupled NADH fluorescence (FDH is formaldehyde dehydrogenase). Potency, µM (doses to about 57.1 µM), hits mostly inhibitors. 230,000 tested, 1.6% active. AID 2147; active = well fitted inhibition curve with a large enough effect, not every such curve was filed as active; inconclusive = small, poorly fitted or top-dose-only effect, or another doubt; inactive = no such curve, though single readings can be large or run the other way; also: nearly all actives have a fitted effect of over 50% in size
Sfp inh: Sfp phosphopantetheinyl transferase inhibition | Q9F4F7 | Biochemical Sfp PPTase activity, qHTS | Potency, µM, hits mostly inhibitors | 310,000 tested, 3.5% active | AID 1490;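 also: the enzyme is Sfp with the accession as filed and its product quenches rhodamine fluorescence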
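Fluorescence-quenching assay with 15 nM Sfp, 5 uM rhodamine-CoA and 12.5 uM BHQ-2-labelled ybbR peptide in pH 7.6 Hepes/MgCl2 buffer. Enzyme was pre-incubated with compound for 15 min at room temperature. Rate was taken from the 30-min fluorescence change (525/598 nm).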
miR-21 FLuc: miR-21 reporter, rising signal | HeLa miR-21 FLuc reporter, luciferase, 48 h | Potency, µM (top dose mostly 38.3 µM) | 340,000 tested, under 10 active | AID 2288; active = well fitted rising curve with a large enough effect; inconclusive = small, poorly fitted or top-dose-only effect; inactive = no such curve, though single readings can be large or run the other way;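 further: miR-21 action dims this reporter so a rising signal means less miR-21 action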
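HeLa cells stably expressing CMV-driven firefly luciferase with a downstream miR-21 binding sequence, endogenously expressing miR-21, were treated with titrations (up to about 40uM final) for 48 hours at 37 degree Celsius. Luciferase luminescence was read after lysis.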
ALDH1A1 inh: blocks purified human ALDH1A1 activity; AID 1030; Potency, µM (top dose mostly 75.3 µM), most hits filed as inhibitors; 220,000 tested, 7.3% active; Purified ALDH1A1, NADH fluorescence, propionaldehyde substrate; P00352; active = well fitted inhibition curve with a large enough effect, not every such curve was filed as active; inconclusive = small, poorly fitted or top-dose-only effect, or another doubt; inactive = no such curve, though single readings can be large or run the other way
Lamin A splicing: changes lamin A minigene splicing in HeLa cells. HeLa LMNA splicing GFP/RFP minigene ratio, 48 h. Potency, µM (highest dose often 46.1 µM), usual class: inhibitors. 200,000 tested, 0.01% active; active = well fitted inhibition curve with a large enough effect in the signal ratio, with a control signal flat, not every such curve was filed as active; inconclusive = small, poorly fitted or top-dose-only effect, or effect the other way, or a change in a side signal; the % refers to the signal ratio
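S3 HeLa cells stably expressing lamin A-EGFP splicing minigene plus DsRed2, 600 cells/well, 48 h compound exposure at 37C. Laser-scanning cytometry; analysed as GFP (500-530 nm)/RFP (575-640 nm) total intensity ratio; 0.5% DMSO vehicle.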
G9a inh: inhibitors of human histone lysine methyltransferase G9a; Potency, µM (titrated, usually from 102 µM), usual class: inhibitors; 350,000 tested, 8.8% active; Q96KQ7; G9a H3K9 monomethylation, AlphaScreen, 2 h; also: nearly all actives have a fitted effect of over 75% in size
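AlphaScreen read-out: biotin-H3K9 peptide (500 nM) methylation by 20 nM enzyme with 20 uM SAM, 2 h at room temperature after 15 min compound preincubation; anti-monomethyl H3K9 antibody plus donor/acceptor beads, 10 min dark.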
A number is an active result; - = inactive; ? = inconclusive; . = no result; [ ] = another dose, or the depositor's remark. Unless noted, calls follow the shape of the dose curve; as a rule, active = well fitted curve in the direction sought with a large enough effect; inconclusive = small, poorly fitted or top-dose-only effect, or another doubt; inactive = no such curve, though single readings can be large; an effect the other way counts as inactive or inconclusive.

SMILES	JMJD2E inh	Sfp inh	miR-21 FLuc	ALDH1A1 inh	Lamin A splicing	G9a inh
COc1ccccc1/C=C/C(=O)NCC(=O)N/N=C/c1ccc(C)o1	.	-	-	.	.	44.7µM
COc1ccccc1/C=C/C(=O)NCC(=O)N/N=C/c1ccccc1	?	-	-	-	.	-
CC(C)NC(=O)CSc1nc2ccccc2nc1N1CCCCC1	.	.	-	.	.	-
COc1ccc(C2CC(=O)c3cc(-c4nc(-c5cccc([N+](=O)[O-])c5)cs4)c(=O)n(-c4cccc(C)c4)c3C2)cc1 (stereo not given)	.	.	-	.	.	15.8µM
CC1(C)CC(=O)c2cc(C#N)c(=O)n(-c3ccc(Cl)cc3)c2C1	.	.	-	.	.	14.1µM
CC1(C)CC(=O)c2cc(-c3nc(-c4ccc(Cl)cc4)cs3)c(=O)n(-c3ccc(Cl)cc3)c2C1	.	.	-	.	.	-
COc1ccc(-n2c3c(cc(-c4nc(-c5ccc(Cl)cc5)cs4)c2=O)C(=O)CC(C)(C)C3)cc1	.	.	-	.	.	4.47µM
COc1ccc(C2CC(=O)c3cc(-c4nc(-c5cccc([N+](=O)[O-])c5)cs4)c(=O)n(-c4ccc(OC)cc4)c3C2)cc1 (stereo not given)	.	.	-	.	.	-
COc1ccc(-n2c3c(cc(-c4nc(-c5ccc(Cl)cc5)cs4)c2=O)C(=O)CC(C)(C)C3)cc1Cl	.	.	-	.	.	8.91µM
COC(=O)c1ccc(NC(=O)CCn2cnnn2)cc1	.	.	-	.	?	-
COc1cccc(NS(=O)(=O)c2ccc3[nH]cc(C(=O)N(C)C4CCCCC4)c(=O)c3c2)c1	.	.	-	.	-	?
COc1ccc(-n2c(-c3ccc(Cl)cc3)cc3c2CC(C)(C)CC3=O)c(OC)c1	.	.	-	.	.	12.6µM
COc1ccc(-c2ccc(SCC(=O)c3ccc(F)cc3)nn2)cc1OC	-	-	-	15.8µM	-	35.5µM
COc1ccc(-c2ccc(SCC(=O)c3cccs3)nn2)cc1OC	-	-	-	-	?	50.1µM
COc1ccc(C(=O)CSc2ccc(-c3ccc(C)cc3)nn2)cc1	-	-	-	?	?	?
COc1ccc(-c2ccc(SCC(=O)N3CCCC3)nn2)cc1OC	-	-	-	?	-	?
COc1ccc2c(c1)CC(C(=O)Nc1cc(Cl)ccc1C)CO2 (stereo not given)	.	.	-	.	-	-
COc1ccc2[nH]cc(C(=O)CN3CCN(C4CCCCC4)CC3)c2c1	-	-	-	25.1µM	-	-
COc1ccc2c(C(=O)CN3CCSCC3)c[nH]c2c1	?	?	-	28.2µM	.	-
Cc1[nH]c2ccccc2c1C(=O)CN1CCN(C2CCCCC2)CC1	-	-	-	12.6µM	-	?
CCOc1ccc(NC(=O)c2oc3ccccc3c2NC(=O)c2ccc(OC)cc2OC)cc1	.	.	-	.	.	-
CCC(=O)N1CCc2cc(S(=O)(=O)NCCC(=O)Nc3ccc(OC)c(Cl)c3)ccc21	.	.	-	.	.	-
CCOCCCNC(=O)CN1C(=O)CSc2cc(S(=O)(=O)N3CCCCCC3)ccc21	-	-	-	10µM	-	-
Cc1cccc(-c2ccc3ncnc(NCc4cc(C)cs4)c3c2)c1	.	.	.	.	.	-[12.7 µM]
CN(C)c1ccc(/C=N/NC(=O)COc2ccccc2)cc1	?	-	-	?	-	?
SMILES	JMJD2E inh	Sfp inh	miR-21 FLuc	ALDH1A1 inh	Lamin A splicing	G9a inh
CCCCCC1CC1C(=O)N/N=C/c1ccc(N(C)C)cc1 (stereo not given)	?	-	-	?	-	15.8µM
CC(C)OC(=O)c1ccc(Cn2nnc3sc4c(c3c2=O)CCCC4)cc1	.	.	-	.	.	-
CC1CCc2c(sc3nnn(Cc4cccc(C(=O)OC(C)C)c4)c(=O)c23)C1 (stereo not given)	.	.	-	.	.	17.8µM
CCNc1nnc(SCC(=O)N2c3ccccc3NC(=O)CC2C)s1 (stereo not given)	.	.	.	.	.	-[12.7 µM]
CCC1Sc2ccc(S(=O)(=O)CCC(=O)Nc3ccc(OC(F)(F)F)cc3)cc2NC1=O (stereo not given)	.	-	-	.	.	-
Cc1nc2nc(-c3ccc(F)cc3)cn2nc1C	.	-	-	.	.	-
CCc1ccc(-c2cn3nc(C)c(C)nc3n2)cc1	28.2µM	-	-	2.82µM	-	-
O=C(Nc1cccc(C(F)(F)F)c1)Nc1nnc(N2CCCCCC2)s1	.	.	-	.	.	-
CC(Sc1ccc2ccccc2n1)C(=O)O (stereo not given)	?	-	-	?	-	50.1µM
CCC(=O)NCc1nc2ccccc2n1Cc1ccccc1	.	.	-	.	.	-
Cc1cc[n+](-c2nc([O-])sc2/C=N/Nc2ccc([N+](=O)[O-])cc2)cc1	-	-	-	14.1µM	-	44.7µM
O=[N+]([O-])c1ccc(N/N=C/c2ccccc2O)cc1	.	-	-	.	.	-
Cc1ccc(C2=N/C(=C/N3CCOCC3)C(=O)O2)cc1	-	-	-	-	-	-
Cc1ccc(C2=N/C(=C\N3CCCCC3)C(=O)O2)cc1	-	50.1µM	-	?	-	-
COc1ccc2c(c1)OCC(Cc1ccc(OC)c(OC)c1)C2O (stereo not given)	-	-	.	-	-	.
C=C(CO)C1Cc2c(ccc3c2OC2COc4cc(OC)c(OC)cc4C2C3=O)O1 (stereo not given)	-	-	.	22.4µM	.	.
CCS(=O)(=O)c1ccc2oc(Nc3cc(Cl)ccc3OC)nc2c1	.	-	-	.	.	35.5µM
CC(C)c1ccc(-c2nnc(N)s2)cc1	?	?	-	-	-	44.7µM
COC(=O)N(C)c1nc2ccccc2s1	-	-	-	-	-	-
CCCCNC(=O)N(C)c1nc2ccccc2s1	-	-	-	?	-[9.22 µM]	50.1µM
Cc1nc2c(sc3nc4c(cc32)COC(C)(C)C4)c(=O)o1	?	-	-	28.2µM	-	?
CCCc1nc2c(sc3nc4c(cc32)COC(C)(C)C4)c(=O)o1	-	-	-	?	-	22.4µM
C/C(=N\NS(=O)(=O)c1ccccc1)c1ccccc1	-	-	-	-	-	.
C/C(=N/NS(=O)(=O)c1ccc(C)cc1)[C@H]1C[C@@H]1c1ccccc1	-	-	-	.	.	12.6µM
Cn1cnnc1SCC(=O)NC1CCCN(Cc2ccccc2F)C1 (stereo not given)	.	-	-	.	.	-
SMILES	JMJD2E inh	Sfp inh	miR-21 FLuc	ALDH1A1 inh	Lamin A splicing	G9a inh
CCOC(=O)c1ccc(NC(=O)CSCCC(=O)O)cc1	-	-	-	31.6µM	-	-
COC(=O)c1ccc(CSc2nc3sc(C(=O)O)c(C)c3c(=O)[nH]2)cc1	-	-	-	?	?	-
CCCCOC(=O)c1ccc(NC(=O)CSCc2n[nH]c(=O)[nH]2)cc1	-	-	-	12.6µM	-	-
CCOC(=O)c1ccc(NC(=O)CSc2nc3sc(C(=O)O)c(C)c3c(=O)[nH]2)cc1	-	-	-	14.1µM	?	-
CCOC(=O)c1ccc(NC(=O)CSCc2ccco2)cc1	-	-	-	2.24µM	-	?
COc1ccc(CN(C)C(=O)C2CCN(S(=O)(=O)c3cccs3)CC2)cc1F	.	.	.	.	.	-[2.33 µM]
CCCn1c2c(c(=N)c3c1CCC3)CCCC2	-	-	?	-	?	12.6µM

Screening data (PubChem BioAssay)
